Values of other authors in patent publication US20170143824A1 (Teva Pharmaceutical Industries, Ltd., priority 2013, published 2017).

Columns and labels:
[1] = after subcutaneous (SC) administration, after one hour
[2] = test system: patients

Substance: L-glutamic acid polymer with L-alanine, L-lysine, L-tyrosine, acetate (salt) [glatiramer acetate]
- remaining at the injection site [1]: 10%
- severity of most adverse events ([2]; 20 mg subcutaneous daily): mild to moderate
- immunosuppression or emergence of malignancy or other autoimmune diseases ([2]; 10- and 15-year follow-up visits): not associated
